Laboratory results from patent US6608082B1, “Treatment of erectile dysfunction using isoquinoline compound melanocortin receptor ligands” (Lion Bioscience AG, priority 1998, dated 2003).

By UniProt entry, the sequences of proteins in these tests, tags left out.
UniProt Q01726, whole entry: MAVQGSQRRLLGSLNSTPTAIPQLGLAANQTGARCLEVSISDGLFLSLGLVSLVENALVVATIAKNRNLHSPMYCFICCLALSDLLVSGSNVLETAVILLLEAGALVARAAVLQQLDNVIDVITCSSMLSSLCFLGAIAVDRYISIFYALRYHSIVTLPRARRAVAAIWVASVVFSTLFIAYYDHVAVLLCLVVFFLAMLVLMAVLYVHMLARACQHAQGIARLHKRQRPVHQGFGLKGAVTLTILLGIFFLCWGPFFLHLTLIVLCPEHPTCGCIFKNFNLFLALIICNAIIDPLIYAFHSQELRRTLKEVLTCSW
UniProt P32245, whole entry: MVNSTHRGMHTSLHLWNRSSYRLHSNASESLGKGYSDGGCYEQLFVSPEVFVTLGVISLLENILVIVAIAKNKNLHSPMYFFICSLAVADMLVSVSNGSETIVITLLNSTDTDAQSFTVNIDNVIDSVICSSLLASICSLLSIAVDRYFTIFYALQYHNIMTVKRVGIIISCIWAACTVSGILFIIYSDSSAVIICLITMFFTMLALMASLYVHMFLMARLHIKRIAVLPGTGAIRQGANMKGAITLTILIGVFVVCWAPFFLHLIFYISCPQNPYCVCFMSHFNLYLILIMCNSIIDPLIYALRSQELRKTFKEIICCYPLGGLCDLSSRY

Columns and labels:
TNF-α = assay: Reduction of lipopolysaccharide-induced tumor necrosis factor levels in mice; settings: plasma 90 or 105 minutes after LPS, mean ± SEM
Protocol: BALB/c female mice weighing approximately 20 g were placed into a control group and a treated group. Five mg/kg of LPS in 0.9% saline was administered (100 μl to give 100 μg LPS per mouse) by intraperitoneal (IP) injection to all mice. Mice in the treatment group received either 30, 100, 300 or 600 μg of various isoquinoline compounds per mouse in a volume of 100 μl of PBS. Control mice received 100 μl of saline alone. One minute after initial injections all mice received the LPS injection. As a positive control, 100 μg of HP 228 was injected per mouse.
Blood samples were collected from the orbital sinus of treated and control mice 90 minutes or 105 minutes after LPS administration. The plasma was separated by centrifugation at 3000×g for 5 min and stored at −20° C. Samples were thawed and diluted, if TNF-α concentration was greater than 3200 pg/ml, with PBS containing 1% bovine serum albumin, 10% donor horse serum, 1% normal mouse serum, 0.05% TWEEN-20 and 0.05% thimerosal. A 100 μl sample of plasma was assayed by ELISA for TNF-α. […] Plates were washed and incubated with streptavidin-HRP for 1 hr at 37° C., and HRP activity was detected with hydrogen peroxide and o-phenylenediamine (OPD) using standard immunoassay procedures.
The mean (±SEM) TNF-α level in five mice from each group was determined and the percent reduction in TNF-α levels was calculated. […]

MCR-1 = MCR-1 (Homo sapiens, UniProt Q01726); assay: cAMP assay for melanocortin receptors, HEK 293 cells expressing MCR-1
Protocol: (§1) HEK 293 cells expressing MCR-1, MCR-3, MCR-4 and MCR-5 were used (see Example II). Cells were plated at 20,000 cells per well in a 96-well plate coated with collagen. The next day, cells were pretreated with 75 μl of 0.4 mM 3-isobutyl-1-methylxanthine (IBMX) in low serum medium containing DMEM, 25 mM HEPES, non-essential amino acids, vitamins, 100 units/ml penicillin, 100 μg/ml streptomycin and 0.1% COSMIC CALF SERUM. IBMX is an inhibitor of cAMP phosphodiesterase. The pretreatment was carried out for 10 min at 37° C.
(§2) Following pretreatment, 25 μl of diluted isoquinoline compound was added to the wells, and cells were incubated for 15 min at 37° C. Cells were lysed by adding 25 μl saponin lysis buffer and incubating 2 to 5 min. Plates were covered and stored at −20° C.
(§3) cAMP concentration was determined by ELISA. Briefly, 96 well ELISA plates were coated with goat anti-cAMP antibody in PBS for 12 to 72 hr at 4° C. 50 μl of sample was mixed with 50 μl of cAMP ELISA buffer containing 1% bovine serum albumin, 10% heat-inactivated donor horse serum, 1% normal mouse serum and 0.05% TWEEN-20 in PBS, and the diluted sample was added to the coated ELISA plate. Standards of known concentrations of cAMP were added to separate wells. 25 μl of 16 ng/ml cAMP-conjugated horse radish peroxidase (HRP) (cAMP-HRP) was added to each well, and the plates were incubated hr at room temperature. Plates were washed and the binding of cAMP-HRP was detected with 3,3′,5,5′-tetramethylbenzidine (TMB) and hydrogen peroxide using standard immunoassay procedures.
Various isoquinoline compounds were tested for their ability to activate MC receptor by measuring cAMP as described in Example III.

MCR-4 = MCR-4 (Homo sapiens, UniProt P32245); assay: cAMP assay for melanocortin receptors, HEK 293 cells expressing MCR-4
Protocol: as §1, §2
as §3, with “25 μl of 16 ng/ml cAMP-conjugated horse radish peroxidase (HRP) (cAMP-HRP) was added to each well, and the plates were incubated hr at room temperature.” left out, “procedures. […]” for “procedures.”

MC-1 Max (pmole) cAMP produced (MCR-1; maximum amount of cAMP): 20 pmol
EC50 (MCR-1; read-out: MC-1 EC50 (cAMP), 50% of maximal cAMP production): 1.1 µM
MC-4 Max (pmole) cAMP produced (MCR-4; maximum amount of cAMP): 50.71 pmol
EC50 (MCR-4; read-out: MC-4 EC50 (cAMP)): 47.6 µM
Structure (SMILES): CCNc1ccc(C2C(CNCc3ccccc3O)c3ccccc3CN2CCCC[C@@H](CN)NC)cc1 (stereo partly drawn)
% TNF-α Inhibtion, IP 30 (TNF-α; 30 μg per mouse): 34 ± 14%
% TNF-α Inhibtion, IP 300 (TNF-α; 300 μg per mouse): 83 ± 11 %
